Here are results for one compound from ChEMBL document CHEMBL3588792, “Selective Acetamidine-Based Nitric Oxide Synthase Inhibitors: Synthesis, Docking, and Biological Studies” (ACS Med Chem Lett, 2015).

Each structure is given as a SMILES string.

The target in this experiment is T1, Nitric oxide synthase 3 (Bos taurus, UniProt P29473).
T1 sequence (P29473 whole entry): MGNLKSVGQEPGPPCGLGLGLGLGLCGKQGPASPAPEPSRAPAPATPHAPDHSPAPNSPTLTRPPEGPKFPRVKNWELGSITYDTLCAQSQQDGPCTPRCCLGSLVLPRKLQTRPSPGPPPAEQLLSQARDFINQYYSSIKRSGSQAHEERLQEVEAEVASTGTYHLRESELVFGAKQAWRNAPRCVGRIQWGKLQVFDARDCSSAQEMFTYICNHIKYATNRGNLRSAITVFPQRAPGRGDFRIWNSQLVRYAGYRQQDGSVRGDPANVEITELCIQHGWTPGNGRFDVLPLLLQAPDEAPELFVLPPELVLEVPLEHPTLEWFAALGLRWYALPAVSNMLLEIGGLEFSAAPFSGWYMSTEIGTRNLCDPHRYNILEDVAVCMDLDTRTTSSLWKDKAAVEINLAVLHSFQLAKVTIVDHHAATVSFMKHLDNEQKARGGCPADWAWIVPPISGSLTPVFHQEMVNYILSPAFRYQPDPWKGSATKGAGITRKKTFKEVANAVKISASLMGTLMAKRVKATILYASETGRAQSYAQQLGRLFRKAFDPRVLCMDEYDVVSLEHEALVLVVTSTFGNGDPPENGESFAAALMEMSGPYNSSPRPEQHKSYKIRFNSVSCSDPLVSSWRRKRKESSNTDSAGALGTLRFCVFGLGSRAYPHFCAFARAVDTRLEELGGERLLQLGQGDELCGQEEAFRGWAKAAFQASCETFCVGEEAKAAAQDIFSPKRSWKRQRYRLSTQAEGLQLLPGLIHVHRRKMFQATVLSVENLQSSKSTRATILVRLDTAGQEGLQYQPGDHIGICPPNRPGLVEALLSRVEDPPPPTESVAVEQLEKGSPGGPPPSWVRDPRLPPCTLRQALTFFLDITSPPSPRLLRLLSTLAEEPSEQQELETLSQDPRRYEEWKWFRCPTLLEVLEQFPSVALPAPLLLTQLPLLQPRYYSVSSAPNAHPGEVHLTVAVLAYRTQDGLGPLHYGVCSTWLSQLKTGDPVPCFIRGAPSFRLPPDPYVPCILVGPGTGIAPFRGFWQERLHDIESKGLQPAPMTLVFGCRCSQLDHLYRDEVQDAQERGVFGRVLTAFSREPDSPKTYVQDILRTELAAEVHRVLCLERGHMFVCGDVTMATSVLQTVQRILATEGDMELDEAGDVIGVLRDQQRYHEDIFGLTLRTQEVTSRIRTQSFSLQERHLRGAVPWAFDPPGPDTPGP
The experiment can be described thus: Inhibition of bovine recombinant eNOS using [3H]L-arginine substrate assessed as formation of [3H]L-citruline by liquid scintillation counting analysis. The procedure, abridged: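 Recombinant enzyme inhibition was read as [3H]L-citrulline formed from [3H]L-arginine. Each inhibitor was tested at seven concentrations in triplicate, with IC50 given as mean ± SD. Selectivity is the eNOS IC50 divided by the iNOS IC50.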

With `CC(=N)NCc1cccc(CN)c1` [1400W], the IC50 came out at 350 µM.
